From paper PMC3100590 (Journal of medicinal chemistry, 2011) come the findings set out here.

Sequences of proteins named here, by UniProt entry; tags and fusion partners are left off. A change or cut given only in a name is not applied to a line headed by its entry.
UniProt P35462, whole entry: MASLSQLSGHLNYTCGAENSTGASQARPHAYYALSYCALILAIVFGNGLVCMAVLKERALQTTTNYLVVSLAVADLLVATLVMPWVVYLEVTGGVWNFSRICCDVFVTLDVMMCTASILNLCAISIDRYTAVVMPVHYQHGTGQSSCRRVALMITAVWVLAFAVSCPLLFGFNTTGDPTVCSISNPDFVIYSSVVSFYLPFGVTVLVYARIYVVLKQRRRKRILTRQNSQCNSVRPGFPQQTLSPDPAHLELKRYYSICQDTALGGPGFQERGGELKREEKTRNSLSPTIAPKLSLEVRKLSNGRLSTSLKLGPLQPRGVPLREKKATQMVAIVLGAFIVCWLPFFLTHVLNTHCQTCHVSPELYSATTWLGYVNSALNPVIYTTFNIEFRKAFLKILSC

The target in the experiment is human D3 dopamine receptor (D3R) (Homo sapiens, UniProt P35462). It counts as binding. Conditions: read-out: D3R Ki ± S.E.M.; Table 2; HEK 293 hD3R, 125I-IABN.

For the substance “N-(Benzo[b]thiophen-2-ylmethyl)-4-(4-(2,3-dichlorophenyl)piperazin-1-yl)-N-propylbutan-1-amine [Compound 13b]”, the Ki was 101 ± 27 nM.
